Compounds with a hit are over-represented: about 3.7% of the library has one in this group of screens.
p53 reactivation: mutant p53 re-activation in reporter cells. AID 504706. 320,000 compounds, 0.063% hits. Potency, µM (series often up to 92.2 µM), for the others: at the top dose activity change, positive = activation, most hits filed as activators. H1299 p53-A138V BP100-luciferase reporter, luminescence, 24 h; further: potency means the concentration at half of the fitted maximal effect; % of control where 0% means no effect; nearly all actives have a fitted effect of over 45% in size
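p53-null H1299 cells stably carrying temperature-sensitive p53-A138V and a BP100-luciferase reporter were pinned with compounds (4-point, 1:5 series) and held 24 hrs at 37 deg C. Luminescence was read 10 min after detection reagent.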
ClpP mod: qHTS Assay for Activators of ClpP | 340,000 compounds, 1.9% hits | Potency, µM (series often up to 57.5 µM), for inactives: at the top dose activity change, negative = active | purified B. subtilis ClpP, FRET peptide cleavage, 20 min; active means well fitted falling curve with a large enough effect; inconclusive means small, poorly fitted or top-dose-only effect; inactive means no such curve, though single readings can be large or run the other way; further: potency means the concentration at half of the fitted maximal effect; the source files actives as falling curves though it sought activators and does not explain the sign; nearly all actives have a fitted effect of over 65% in size
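Purified B. subtilis ClpP, 10 microg/mL final in Tris/HCl pH8 with KCl, BSA, glycerol and Tween-20, cleaved an Abz/nitrotyrosine-quenched decapeptide. Fluorescence (ex 320, em 430) was read at 0 and 20 min at room temperature. Delta was normalized to 5.8 microM ADEP and DMSO/no-enzyme controls.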
Nrf2 inh: blocks Nrf2 signaling; A549 ARE-Fluc reporter, luciferase luminescence, 18-24 h; Potency, µM (series often up to 46 µM), inactives show top-dose activity change, negative = inhibition, hits mostly inhibitors; 360,000 compounds, 2.1% hits; further: potency means the concentration at half of the fitted maximal effect; on the % scale 0 is the no-effect control and ±100 the full control effect; nearly all actives have a fitted effect of over 60% in size
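Nrf2 activity is the BugLite luminescence, read 15 min after reagent at room temperature, following CellTiter-Fluor cytotoxicity readout (30 min, 37C). Compound titrations were applied for 18-24 h to 5000 A549 ARE_Fluc cells/well in 5% FBS OPTI-MEM.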
Nrf2 ARE act: Nrf2 pathway activation; Potency, µM (doses to about 46.1 µM), for the others: at the highest dose activation, most hits filed as activators; AID 624171; AREc32 ARE-luciferase reporter (MCF7-derived line), luminescence, 24 h; 410,000 compounds, 0.31% hits; further: potency means the concentration at half of the fitted maximal effect; % of control where 0% means no effect; nearly all actives have a fitted effect of over 65% in size
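Nrf2 activation is followed as ARE-luciferase induction in the AREc32 line after one day of compound treatment; luminescence is read with Steady-Glo.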
miR-21 FLuc: raises the signal of a miR-21 reporter; HeLa miR-21 FLuc reporter, luciferase, 48 h; Potency, µM (highest dose often 38.3 µM), for inactives: at the highest dose reporter change, positive = more light; 340,000 tested, under 10 active; active = well fitted rising curve with a large enough effect; inconclusive = small, poorly fitted or top-dose-only effect; inactive = no such curve, though single readings can be large or run the other way;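 also: % of control where 0% means no effect; miR-21 action dims this reporter so a rising signal means less miR-21 action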
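Using DMEM plus 10% FBS, HeLa miR-21-FLuc cells are incubated with test compounds (final up to about 40uM) for 48 hours; firefly luciferase signal is then imaged following reagent-mediated lysis.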
A549 tox-1: counter-screen for Nrf2 inhibitors: cytotoxicity in A549 cells; A549 ARE-Fluc cells, CellTiter-Fluor viability, 18-24 h; Potency, µM (highest dose often 46 µM), for the others: top-dose activity change, negative = cytotoxicity, most hits filed as inhibitors; 390,000 compounds, 0.16% hits; AID 504648; further: potency means the concentration at half of the fitted maximal effect; on the % scale 0 is the no-effect control and ±100 the full control effect
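A549 ARE-Fluc cells in 5% FBS OPTI-MEM, 5000 cells/well, rested 2 h then exposed to compounds in concentration-response for 18-24 h at 37 °C. Viability by CellTiter-Fluor fluorescence (Ex 405/Em 525) after 30 min; luciferase luminescence (BugLite, 15 min, RT) read afterwards.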
FLuc enzyme inh: blocks purified firefly luciferase in Nrf2 counterscreen. purified firefly luciferase, luminescence inhibition. Potency, µM (highest dose often 57.5 µM), for inactives: top-dose activity change, negative = inhibition, actives largely listed as inhibitors. 1,400 compounds, 4% hits. AID 720522. shares compounds with Nrf2 inh; further: potency means the concentration at half of the fitted maximal effect; on the % scale 0 is the no-effect control and ±100 the full control effect; nearly all actives have a fitted effect of over 65% in size
A549 tox-2: A549 cytotoxicity, Nrf2 inhibitor counterscreen; shares compounds with Nrf2 inh; A549 ARE-Fluc cells, cytotoxicity counterscreen; Potency, µM (doses to about 46.1 µM), without a hit: at the highest dose activity change, negative = cytotoxicity, actives largely listed as inhibitors; 1,400 compounds, 2% hits; AID 720523;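 further: potency means the concentration at half of the fitted maximal effect; cells exposed to compounds for 18 to 24 hours; on the % scale 0 is the no-effect control and ±100 the full control effect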
ARE-Fluc inh: reduces Nrf2 ARE reporter signal in A549 cells; shares compounds with Nrf2 inh; A549 ARE-firefly luciferase reporter, luminescence; Potency, µM (doses to about 46.1 µM), for the others: at the highest dose activity change, negative = inhibition, usual class: inhibitors; 1,400 compounds, 74% hits; AID 720524; further: potency means the concentration at half of the fitted maximal effect; on the % scale 0 is the no-effect control and ±100 the full control effect; nearly all actives have a fitted effect of over 65% in size
Starred values were filed as active, the others as inactive; ? = inconclusive; . = not tested or not shown. Unless noted, the call rests on the fitted dose curve; in most records, active means well fitted curve in the direction sought with a large enough effect; inconclusive means small, poorly fitted or top-dose-only effect, or another doubt; inactive means no such curve, though single readings can be large; an effect the other way counts as inactive or inconclusive.

#1 CCN(CC)S(=O)(=O)c1ccc(NC(=O)c2ccc3c(=O)n4c(nc3c2)CCCCC4)cc1
#2 CN(C)c1cc[n+](CC(=O)Nc2ccc(Cl)c([N+](=O)[O-])c2)cc1
#3 CN(Cc1ccccc1)C(=O)[C@@H]1CCCN1C(=O)[C@@H]1CCCN1C(=O)c1cccc2ccccc12
#4 CC(=O)Nc1cc([N+](=O)[O-])cc(NC(C)=O)c1NC(C)=O
#5 O=C(CCCN1C(=O)/C(=C/c2ccccc2Cl)SC1=S)NNC(=O)c1ccc(Cl)cc1Cl
#6 O=C(CCCN1C(=O)/C(=C/c2ccccc2Cl)SC1=S)NNC(=O)c1cccnc1
#7 Cc1cc(F)ccc1S(=O)(=O)Nc1ccccc1C(=O)Nc1ccccc1-c1nc2ccccc2[nH]1
#8 O=C1N=C(N2CCC(Cc3ccccc3)CC2)S/C1=C/c1cn[nH]c1-c1ccccc1
compound no. | 1 | 2 | 3 | 4 | 5 | 6 | 7 | 8
p53 reactivation | . | . | . | . | -12% | -6% | 4% | -1%
ClpP mod | -2% | . | 0% | 1% | 2% | -4% | 32µM* | -21%
Nrf2 inh | 9.2µM* | 4.6µM* | . | . | 6.5µM* | ? | 4.1µM* | ?
Nrf2 ARE act | 0% | 0% | -1% | . | -2% | 11% | -2% | 0%
miR-21 FLuc | ? | 29% | . | . | ? | ? | ? | 5%
A549 tox-1 | ? | -3% | . | . | 0% | -12% | 23µM* | -15%
FLuc enzyme inh | -9% | 0% | . | . | -12% | . | 2% | -1%
A549 tox-2 | -15% | -5% | . | . | -19% | . | ? | -6%
ARE-Fluc inh | 8.2µM* | 8.2µM* | . | . | 7.3µM* | . | 16µM* | ?

Some of the entries above, set out differently.
Values run as follows: p53 reactivation | ClpP mod | Nrf2 inh | Nrf2 ARE act | miR-21 FLuc | A549 tox-1 | FLuc enzyme inh | A549 tox-2 | ARE-Fluc inh
6. O=C(CCCN1C(=O)/C(=C/c2ccccc2Cl)SC1=S)NNC(=O)c1cccnc1
→ -6% | -4% | ? | 11% | ? | -12% | . | . | .
4. CC(=O)Nc1cc([N+](=O)[O-])cc(NC(C)=O)c1NC(C)=O
→ . | 1% | . | . | . | . | . | . | .
2. CN(C)c1cc[n+](CC(=O)Nc2ccc(Cl)c([N+](=O)[O-])c2)cc1
→ . | . | 4.6µM* | 0% | 29% | -3% | 0% | -5% | 8.2µM*

Other records
#9 O=C(Nc1ccc2c(c1)OCCO2)c1cccc2nc3ccccc3nc12
#10 COc1ccc(C2C3=C(CC(C)(C)CC3=O)Oc3ncn(CC(C)C)c(=N)c32)cc1 (stereo not given)
#11 COc1ccc(C2C3=C(CC(C)(C)CC3=O)Oc3ncn(Cc4ccco4)c(=N)c32)cc1 (stereo not given)
#12 O=C(Nc1cc(S(=O)(=O)N2CCCCC2)ccc1Cl)c1ccccc1NS(=O)(=O)c1ccc(F)cc1
#13 O=C(Nc1cc(S(=O)(=O)N2CCCCC2)ccc1O)c1ccccc1NS(=O)(=O)c1ccc(F)cc1
#14 COc1ccc(-n2ncc3c2ncn2nc(COc4ccc(Cl)cc4)nc32)cc1
#15 CCOC(=O)c1[nH]c(C)c(C(=O)OCc2ccccc2F)c1C
#16 CC(=O)c1c(C)[nH]c(C(=O)OCC(=O)NCc2ccc(Cl)cc2)c1C
#17 CC(=O)c1c(C)[nH]c(C(=O)OCc2c(F)cccc2Cl)c1C
compound no. | 9 | 10 | 11 | 12 | 13 | 14 | 15 | 16 | 17
p53 reactivation | -3% | 1% | -14% | 9% | 0% | . | -6% | -8% | 0%
ClpP mod | 1% | 0% | -3% | ? | ? | ? | -3% | 2% | .
Nrf2 inh | 2.6µM* | 7% | 9.2µM* | 3.7µM* | -8% | 6% | -16% | 8.2µM* | 5.2µM*
Nrf2 ARE act | 0% | 2% | 9% | 4% | -1% | 0% | 0% | 6% | 0%
miR-21 FLuc | 3% | 9% | -11% | ? | 1% | 2% | 16% | . | -8%
A549 tox-1 | 21µM* | -7% | ? | ? | 2% | -5% | ? | -14% | -12%
FLuc enzyme inh | ? | . | 3% | -26% | . | . | . | 2% | -1%
A549 tox-2 | 12µM* | . | -9% | ? | . | . | . | 0% | 3%
ARE-Fluc inh | . | . | 9% | 4.6µM* | . | . | . | 13µM* | 15µM*
